The target of experiment [1] is T1, mA3AR (Mus musculus, UniProt Q61618).
T1 sequence (Q61618 1-319): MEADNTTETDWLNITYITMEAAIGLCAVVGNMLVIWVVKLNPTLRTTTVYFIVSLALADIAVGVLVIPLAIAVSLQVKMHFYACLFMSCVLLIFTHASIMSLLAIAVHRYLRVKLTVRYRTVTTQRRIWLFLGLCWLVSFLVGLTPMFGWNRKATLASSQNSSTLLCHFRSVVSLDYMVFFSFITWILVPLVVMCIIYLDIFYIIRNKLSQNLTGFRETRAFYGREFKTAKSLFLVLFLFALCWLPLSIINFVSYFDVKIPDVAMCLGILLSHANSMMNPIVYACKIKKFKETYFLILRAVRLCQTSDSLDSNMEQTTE
As to conditions: HEK-293 cells, compared to 38 (Cl-IB-MECA); cited from earlier work.

In experiment [2] the target is T1, mA3AR.

The source of these data is PMC7443318 (Journal of medicinal chemistry, 2020).

As for `O[C@@H]1[C@H](O)[C@@H]2C[C@@H]2[C@H]1n1cnc2c(NCCc3ccccc3)nc(C#Cc3ccccc3)nc21` [Compound 8], in experiment [1], the “Emax, inhibition of forskolin-stimulated cyclic AMP production” value was 14%.
`COc1cc(CCNc2nc(C#Cc3ccc(Br)s3)nc3c2ncn3[C@H]2[C@H](O)[C@H](O)[C@@H]3C[C@@H]32)ccc1O` [Compound 30, (1R,2R,3S,4R,5S)-4-(2-((5-Bromothiophen-2-yl)ethynyl)-6-((4-hydroxy-3-methoxyphenethyl)amino)-9H-purin-9-yl)bicyclo[3.1.0]hexane-2,3-diol] registered a mA3AR selectivity in experiment [2] of more than 1000 fold.
